# Data reported in publication PMC6658998, “Pharmacological characterization of the seven human NOX isoforms and their inhibitors” (Redox Biology, 2019).
# Experiments:
# NOX5 [1] = molecular target: T1, NOX5 (Homo sapiens, UniProt Q96PH1); test: Amplex Red/HRP H2O2 detection in NOX5-expressing HEK293 cells; assay type: cell-based
# T1 construct: expressed in transfected cells
# T1 sequence (Q96PH1 19-737 isoform Q96PH1-3 limits assumed): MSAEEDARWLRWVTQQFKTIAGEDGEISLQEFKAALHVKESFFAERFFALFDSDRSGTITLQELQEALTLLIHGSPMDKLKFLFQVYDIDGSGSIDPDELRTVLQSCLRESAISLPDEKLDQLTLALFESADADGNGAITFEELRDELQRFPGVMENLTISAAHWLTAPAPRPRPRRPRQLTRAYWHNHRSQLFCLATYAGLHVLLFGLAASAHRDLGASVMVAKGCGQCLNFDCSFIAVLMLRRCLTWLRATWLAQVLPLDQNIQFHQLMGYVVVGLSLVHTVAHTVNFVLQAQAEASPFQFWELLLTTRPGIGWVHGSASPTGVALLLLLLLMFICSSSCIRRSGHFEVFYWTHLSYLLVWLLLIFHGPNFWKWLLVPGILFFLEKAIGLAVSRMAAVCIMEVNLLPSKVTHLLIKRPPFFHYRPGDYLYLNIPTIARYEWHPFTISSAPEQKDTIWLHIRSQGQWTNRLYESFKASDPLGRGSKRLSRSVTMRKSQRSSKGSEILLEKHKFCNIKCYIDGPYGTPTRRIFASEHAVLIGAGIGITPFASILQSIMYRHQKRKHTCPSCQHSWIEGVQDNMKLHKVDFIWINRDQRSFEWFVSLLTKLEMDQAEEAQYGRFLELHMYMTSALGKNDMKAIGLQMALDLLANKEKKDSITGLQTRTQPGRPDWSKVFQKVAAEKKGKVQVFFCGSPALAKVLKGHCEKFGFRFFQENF
# NOX5 [2] = molecular target: T1, NOX5; test: WST-1 O2•- detection in NOX5-expressing HEK293 cells; assay type: cell-based
structure (smiles),measurement,setting,value
"c1ccc2c(c1)[I+]c1ccccc1-2 [DPI, diphenylene iodonium chloride]",IC50,NOX5 [1],400 nM
same,IC50,NOX5 [2],1200 nM
